Reference: ChEMBL document CHEMBL3870360, “GluN2A-Selective Pyridopyrimidinone Series of NMDAR Positive Allosteric Modulators with an Improved in Vivo Profile” (ACS Med Chem Lett, 2017)

Protein sequences, listed by entry. Tags and fused reporters are not part of them. Lines headed by an entry give the natural chain unless they say otherwise; changes in a name come on top.
UniProt Q12879, whole entry, looked up: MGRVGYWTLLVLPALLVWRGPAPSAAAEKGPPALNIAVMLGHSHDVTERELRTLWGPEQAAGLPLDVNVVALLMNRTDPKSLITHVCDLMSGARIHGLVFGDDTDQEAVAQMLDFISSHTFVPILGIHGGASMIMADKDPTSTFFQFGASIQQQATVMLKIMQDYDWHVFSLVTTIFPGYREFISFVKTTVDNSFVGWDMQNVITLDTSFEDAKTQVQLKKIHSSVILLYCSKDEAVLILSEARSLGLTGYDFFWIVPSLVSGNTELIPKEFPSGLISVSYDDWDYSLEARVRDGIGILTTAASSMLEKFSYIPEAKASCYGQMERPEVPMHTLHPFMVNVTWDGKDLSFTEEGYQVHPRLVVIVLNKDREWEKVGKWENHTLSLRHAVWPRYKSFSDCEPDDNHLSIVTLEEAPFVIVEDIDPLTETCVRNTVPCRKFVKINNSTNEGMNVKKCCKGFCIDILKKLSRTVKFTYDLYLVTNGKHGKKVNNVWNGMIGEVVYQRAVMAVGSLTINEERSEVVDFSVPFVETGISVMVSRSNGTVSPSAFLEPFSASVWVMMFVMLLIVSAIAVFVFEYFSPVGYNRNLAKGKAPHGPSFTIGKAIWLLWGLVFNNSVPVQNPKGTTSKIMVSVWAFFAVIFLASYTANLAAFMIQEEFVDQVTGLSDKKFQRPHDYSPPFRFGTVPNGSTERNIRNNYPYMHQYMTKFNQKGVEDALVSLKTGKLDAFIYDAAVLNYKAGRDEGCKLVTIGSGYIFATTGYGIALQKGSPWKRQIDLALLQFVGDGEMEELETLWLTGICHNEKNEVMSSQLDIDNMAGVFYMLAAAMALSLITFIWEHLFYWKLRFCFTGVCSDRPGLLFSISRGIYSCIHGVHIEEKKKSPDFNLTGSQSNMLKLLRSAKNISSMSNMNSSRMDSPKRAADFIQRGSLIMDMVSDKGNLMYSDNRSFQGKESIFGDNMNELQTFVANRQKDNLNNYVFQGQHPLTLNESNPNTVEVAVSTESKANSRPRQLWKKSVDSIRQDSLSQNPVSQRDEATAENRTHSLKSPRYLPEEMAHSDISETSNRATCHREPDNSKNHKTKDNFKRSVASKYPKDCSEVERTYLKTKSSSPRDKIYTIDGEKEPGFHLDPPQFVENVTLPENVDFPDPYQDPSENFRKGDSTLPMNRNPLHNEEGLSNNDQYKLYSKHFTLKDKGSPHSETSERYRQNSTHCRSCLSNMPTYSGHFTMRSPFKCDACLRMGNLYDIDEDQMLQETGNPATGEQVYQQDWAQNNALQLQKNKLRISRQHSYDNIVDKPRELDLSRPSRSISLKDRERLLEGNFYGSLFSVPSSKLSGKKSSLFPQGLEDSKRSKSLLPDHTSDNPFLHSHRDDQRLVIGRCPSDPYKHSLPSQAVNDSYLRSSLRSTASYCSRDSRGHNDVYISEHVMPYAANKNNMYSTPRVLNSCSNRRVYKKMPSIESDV
UniProt Q14957: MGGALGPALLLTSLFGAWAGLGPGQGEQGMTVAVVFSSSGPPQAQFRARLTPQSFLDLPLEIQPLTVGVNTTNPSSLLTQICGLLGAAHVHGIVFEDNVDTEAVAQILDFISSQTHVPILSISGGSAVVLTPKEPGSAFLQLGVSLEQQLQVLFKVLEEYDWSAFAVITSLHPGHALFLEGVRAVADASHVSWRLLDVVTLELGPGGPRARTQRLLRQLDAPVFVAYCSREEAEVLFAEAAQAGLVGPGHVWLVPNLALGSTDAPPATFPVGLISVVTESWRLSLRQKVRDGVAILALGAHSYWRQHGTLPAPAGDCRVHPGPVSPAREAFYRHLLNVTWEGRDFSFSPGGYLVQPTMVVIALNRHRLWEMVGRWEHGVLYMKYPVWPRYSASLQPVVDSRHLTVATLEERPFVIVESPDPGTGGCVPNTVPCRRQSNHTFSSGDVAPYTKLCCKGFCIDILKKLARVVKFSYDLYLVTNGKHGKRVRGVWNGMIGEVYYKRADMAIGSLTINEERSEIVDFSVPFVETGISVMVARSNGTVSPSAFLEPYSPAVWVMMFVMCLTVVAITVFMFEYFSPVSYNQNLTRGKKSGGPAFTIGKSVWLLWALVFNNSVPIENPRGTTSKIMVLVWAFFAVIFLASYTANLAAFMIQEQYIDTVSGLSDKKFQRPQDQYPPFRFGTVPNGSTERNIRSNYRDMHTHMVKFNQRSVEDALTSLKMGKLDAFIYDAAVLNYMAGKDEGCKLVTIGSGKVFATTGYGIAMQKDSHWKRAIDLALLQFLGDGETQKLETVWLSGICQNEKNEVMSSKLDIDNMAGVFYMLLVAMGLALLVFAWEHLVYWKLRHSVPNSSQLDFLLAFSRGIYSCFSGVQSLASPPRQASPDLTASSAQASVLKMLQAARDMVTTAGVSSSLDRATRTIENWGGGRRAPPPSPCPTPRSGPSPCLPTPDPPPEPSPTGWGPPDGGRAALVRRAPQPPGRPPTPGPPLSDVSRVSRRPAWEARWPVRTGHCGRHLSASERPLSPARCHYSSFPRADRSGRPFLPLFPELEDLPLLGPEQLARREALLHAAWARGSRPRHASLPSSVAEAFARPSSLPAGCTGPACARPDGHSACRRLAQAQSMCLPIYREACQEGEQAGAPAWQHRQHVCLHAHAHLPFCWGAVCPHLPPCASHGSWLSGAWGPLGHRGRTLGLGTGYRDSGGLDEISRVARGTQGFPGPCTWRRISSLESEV
UniProt O15399, whole entry, looked up: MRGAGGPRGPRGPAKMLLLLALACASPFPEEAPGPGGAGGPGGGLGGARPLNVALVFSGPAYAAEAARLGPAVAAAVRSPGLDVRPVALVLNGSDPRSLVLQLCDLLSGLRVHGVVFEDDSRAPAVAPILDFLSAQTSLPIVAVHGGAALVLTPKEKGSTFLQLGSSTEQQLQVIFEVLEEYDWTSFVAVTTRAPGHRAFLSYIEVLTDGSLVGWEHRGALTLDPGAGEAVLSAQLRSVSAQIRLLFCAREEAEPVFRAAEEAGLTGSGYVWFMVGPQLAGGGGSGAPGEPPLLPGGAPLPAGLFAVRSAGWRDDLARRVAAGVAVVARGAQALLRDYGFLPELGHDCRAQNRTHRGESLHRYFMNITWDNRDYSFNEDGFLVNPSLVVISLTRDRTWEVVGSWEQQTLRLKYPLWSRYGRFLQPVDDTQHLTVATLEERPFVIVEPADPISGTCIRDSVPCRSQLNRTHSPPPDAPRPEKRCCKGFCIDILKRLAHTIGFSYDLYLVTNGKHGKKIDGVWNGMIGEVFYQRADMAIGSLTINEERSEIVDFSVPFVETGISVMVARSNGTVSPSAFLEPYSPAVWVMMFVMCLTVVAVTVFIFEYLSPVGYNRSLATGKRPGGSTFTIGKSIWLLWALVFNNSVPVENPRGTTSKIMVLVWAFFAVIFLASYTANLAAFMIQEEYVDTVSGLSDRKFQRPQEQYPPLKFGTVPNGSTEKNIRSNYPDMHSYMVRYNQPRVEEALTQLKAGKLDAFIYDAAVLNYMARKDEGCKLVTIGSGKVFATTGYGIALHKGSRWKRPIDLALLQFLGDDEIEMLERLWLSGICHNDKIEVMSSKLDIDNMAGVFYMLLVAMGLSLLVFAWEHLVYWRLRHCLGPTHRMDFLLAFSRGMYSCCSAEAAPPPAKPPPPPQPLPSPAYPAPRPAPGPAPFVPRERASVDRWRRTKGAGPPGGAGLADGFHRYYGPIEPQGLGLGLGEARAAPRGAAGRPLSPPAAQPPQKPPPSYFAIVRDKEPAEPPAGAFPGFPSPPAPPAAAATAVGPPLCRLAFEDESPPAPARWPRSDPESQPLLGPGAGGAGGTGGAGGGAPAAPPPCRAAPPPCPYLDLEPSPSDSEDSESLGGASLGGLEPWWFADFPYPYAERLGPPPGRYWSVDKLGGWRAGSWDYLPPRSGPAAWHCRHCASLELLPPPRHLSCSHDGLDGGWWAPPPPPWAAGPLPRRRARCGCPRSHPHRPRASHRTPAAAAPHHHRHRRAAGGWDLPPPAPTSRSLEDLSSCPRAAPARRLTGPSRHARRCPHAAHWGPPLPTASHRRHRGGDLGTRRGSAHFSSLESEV

What was measured:
[1] = target: T1, Glutamate NMDA receptor; GRIN1/GRIN2A (Homo sapiens, UniProt Q05586+Q12879); test: Positive allosteric modulation of GluN1/GluN2A receptor (unknown origin) expressed in CHO cells assessed as increase in glutamate-induced calcium flux at 125 uM measured at time interval of 5 mins in presence of saturating glycine by calcium dye-based fluorescence assay relative to glutamate; assay type: cell-based
[2] = target: T1, Glutamate NMDA receptor; GRIN1/GRIN2A; test: Deactivation of GluN1/GluN2A receptor (unknown origin) expressed in CHO cells assessed as time constant for signal decay at 1 uM preincubated followed by glutamate addition in presence of saturating glycine measured after glutamate removal by electrophysiology method; assay type: cell-based
[3] = target: Ionotropic glutamate receptor NMDA 1/2C (Homo sapiens, UniProt Q05586+Q14957); settings: 125 uM
[4] = target: Ionotropic glutamate receptor NMDA 1/2D (Homo sapiens) (UniProt Q05586+O15399); settings: 125 uM

N#C[C@@H]1C[C@H]1c1c(Cl)ccc2nc(Cn3nc(C(F)(F)F)cc3Cl)cc(=O)n12
Emax [1]: 136%
TIME [2]: 0.00088 h
Emax [3]: 243%
Emax [4]: 140%
